PubChem BioAssay AID2557 (NMMLSC, 2010)
This is a selection; strong and weak results do not stand in their true shares. Active and inactive are the calls of the source. Rule as the data show it: active = inhibition above about 50%; inactive = the rest.

By UniProt entry, the sequences of proteins in these tests, tags left out.
UniProt P13612, whole entry, looked up: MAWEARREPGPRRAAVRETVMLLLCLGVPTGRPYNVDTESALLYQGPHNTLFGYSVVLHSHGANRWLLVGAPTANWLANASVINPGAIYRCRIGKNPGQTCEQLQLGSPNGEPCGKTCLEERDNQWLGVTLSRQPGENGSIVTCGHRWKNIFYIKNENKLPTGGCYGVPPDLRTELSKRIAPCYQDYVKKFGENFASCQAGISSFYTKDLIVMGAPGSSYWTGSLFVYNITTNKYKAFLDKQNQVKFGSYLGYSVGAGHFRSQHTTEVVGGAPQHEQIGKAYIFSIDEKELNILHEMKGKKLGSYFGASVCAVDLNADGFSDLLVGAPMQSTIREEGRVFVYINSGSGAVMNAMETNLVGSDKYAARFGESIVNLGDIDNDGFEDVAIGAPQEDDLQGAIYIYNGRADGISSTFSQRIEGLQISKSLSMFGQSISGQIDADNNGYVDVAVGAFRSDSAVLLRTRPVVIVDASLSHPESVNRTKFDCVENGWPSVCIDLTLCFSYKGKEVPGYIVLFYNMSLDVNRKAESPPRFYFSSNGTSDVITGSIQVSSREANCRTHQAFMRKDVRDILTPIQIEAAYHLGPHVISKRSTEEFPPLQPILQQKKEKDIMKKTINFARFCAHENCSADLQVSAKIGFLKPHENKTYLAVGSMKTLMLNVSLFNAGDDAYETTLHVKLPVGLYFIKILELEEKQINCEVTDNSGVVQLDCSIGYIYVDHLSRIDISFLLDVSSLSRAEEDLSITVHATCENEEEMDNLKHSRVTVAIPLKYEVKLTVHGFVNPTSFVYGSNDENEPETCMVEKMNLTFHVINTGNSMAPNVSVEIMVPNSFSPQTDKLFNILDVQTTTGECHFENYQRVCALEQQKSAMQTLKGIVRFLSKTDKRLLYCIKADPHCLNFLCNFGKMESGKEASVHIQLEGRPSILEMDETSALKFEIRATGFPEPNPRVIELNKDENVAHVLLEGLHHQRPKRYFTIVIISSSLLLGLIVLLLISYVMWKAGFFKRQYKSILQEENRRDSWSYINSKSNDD

Each molecule was assayed against Integrin alpha-4 (Homo sapiens) (UniProt P13612) (assay: inhibition in human VLA-4 binding assay, primary screen, VLA-4 allosteric modulator project, MLPCN library, flow cytometry, VLA-4 expressing cells (AID 2557)). Conditions: ligand binding flow cytometry, active compounds read high, about 7 µM as worked out from the volumes in the protocol.

| Structure (SMILES) | inhibition |
| --- | --- |
| CCC(=O)N1C2C3N(C(=O)CC)C1C1N(C(=O)CC)C(C(N1C(=O)CC)N3C(=O)CC)N2C(=O)CC | inactive: 5.29% |
| O=C(OC1CN2CCC1CC2)c1ccccc1 (stereo unspecified) | inactive: -3.22% |
| CN(C)C(=O)Oc1noc2ccccc12 | inactive: 1.05% |
| CC(NC(=O)COC(=O)C(O)(c1ccccc1)c1ccccc1)c1ccccc1 (stereo unspecified) | inactive: 7.73% |
| Cc1ccccc1OP(=O)(Nc1ccccn1)Oc1ccccc1C | inactive: 10.3% |
| O=C(NC1CCS(=O)(=O)C1)NP(=S)(Oc1ccccc1)Oc1ccccc1 (stereo unspecified) | inactive: -9.55% |
| CCNC(=S)/N=C(\N)N[N+](=O)[O-] | inactive: -5.91% |
| CCOC(=O)NC(Sc1ccccc1)C(Cl)(Cl)Cl (stereo unspecified) | inactive: 3.36% |
| Cc1ccc(NP(=O)(Oc2cccc(C)c2)Oc2cccc(C)c2)nc1 | inactive: 10.3% |
| c1ccc(-c2nn[nH]n2)c(-c2nn[nH]n2)c1 | inactive: 6.15% |
| O=[N+]([O-])c1ncn(CCn2cnc([N+](=O)[O-])n2)n1 | inactive: 10.2% |
| CC(=O)NC(SC(=S)N(C)C)C(Cl)(Cl)Cl (stereo unspecified) | inactive: 5.32% |
| O=[N+]([O-])c1ccc(O)c(/C=N/Nc2ccc([N+](=O)[O-])cc2[N+](=O)[O-])c1 | inactive: 2.83% |
| O=[As](O)(c1ccccc1)c1ccc(O)cc1 | inactive: -21.4% |
| C(Cc1nn[nH]n1)Cc1nn[nH]n1 | inactive: 11.4% |
| Nc1ccc([As](=O)(O)c2ccc([N+](=O)[O-])cc2)cc1 | inactive: 11.5% |
| O=C(OC1CN2CCC1CC2)c1cccc(Cl)c1 (stereo unspecified) | inactive: -3.54% |
| CN(C)C1(CNC(=O)c2ccc(Cl)c(S(N)(=O)=O)c2)CCCCC1 | inactive: -30.3% |
| O=P(Nc1ccccn1)(c1ccc(Br)cc1)c1ccc(Br)cc1 | inactive: 1.25% |
| C[C@H]1OP(=O)(Oc2ccccc2)[C@H](O)[C@H](O)[C@H]1N=[N+]=[N-] (stereo partly specified) | inactive: -8.14% |
| O=P(Nc1nc2ccccc2s1)(c1ccccc1)c1ccccc1 | inactive: 23.7% |
| O=P(Nc1nccs1)(c1ccccc1)c1ccccc1 | inactive: -7.88% |
| CC(C)C(=O)NC(Sc1ccccc1)C(Cl)(Cl)Cl (stereo unspecified) | inactive: 31.7% |
| c1nnnn1CCn1cnnn1 | inactive: 15% |
| COc1ccccc1CNC(=O)COC(=O)C(O)(c1ccccc1)c1ccccc1 | inactive: 0.04% |
| CC1(CBr)Cn2c(nc3ccccc3c2=O)S1 (stereo unspecified) | inactive: 8.14% |

| Structure (SMILES) | inhibition |
| --- | --- |
| O=[As](O)(c1ccccc1Br)c1ccccc1Br | inactive: 10.8% |
| CN(C(=O)Cc1ccc(Cl)c(Cl)c1)[C@@H]1CCCC[C@H]1N1CCCC1 | inactive: -7.33% |
| CC(C)/C=N\N=C(\N)N[N+](=O)[O-] | inactive: 14.5% |
| CCOP(=O)(Nc1ccc(C)cn1)OCC | inactive: -17.2% |
| CN(CCCl)Cc1cc(Cl)c(NC2=NCCN2)c(Cl)c1 | inactive: 25.5% |
| CCOP(=O)(NC(=NC(C)c1ccccc1)NC(C)c1ccccc1)OCC (stereo unspecified) | inactive: -10.4% |
| CCC1=CC2Cc3nc4ccc(Cl)cc4c(N)c3C(C1)C2 (stereo unspecified) | inactive: -0.31% |
| O=P1(Nc2ccccn2)COc2ccccc2OC1 | inactive: 0.71% |
| CC(C)(C)C(=O)NC(Sc1ncccn1)C(Cl)(Cl)Cl (stereo unspecified) | inactive: 4.53% |
| Clc1n[nH]nc1-c1nn[nH][15n]1 | inactive: 3.61% |
| O=P1(Nc2ncccn2)COc2ccccc2OC1 | inactive: -6.37% |
| O=[As](O)(c1cccs1)c1cccs1 | inactive: 1.73% |
| Cc1ccc(OCC(=O)OC2CN3CCC2CC3)cc1 (stereo unspecified) | inactive: 11.6% |
| NS(=O)(=O)c1cccc(NC(=O)COC(=O)C(O)(c2ccccc2)c2ccccc2)c1 | inactive: -1.02% |
| O=P1(Nc2ccc(Br)cn2)COc2ccccc2OC1 | inactive: 24.7% |
| Nc1cccc([As](=O)(O)c2ccccc2)c1 | inactive: -10.5% |
| Cc1ccc(C(=O)OC2CN3CCC2CC3)cc1 (stereo unspecified) | inactive: 0% |
| CC1CCC(C(C)C)C(OP(=O)(Nc2ccccn2)c2ccccc2)C1 (stereo unspecified) | inactive: 0.82% |
| Cc1nn(-c2ccccc2)c2c1P(=O)(N1CCOCC1)N(C)C(c1ccccc1)=N2 (stereo unspecified) | inactive: 10.1% |
| O=C(/C=C/c1ccccc1)OC1CN2CCC1CC2 (stereo unspecified) | inactive: -2.95% |
| CN(C)C1(CNC(=O)c2ccc(S(C)(=O)=O)cc2)CCCCC1 | inactive: -0.09% |
| NC(=O)Nc1ccc([As](=O)(O)O)cc1 | inactive: 1.59% |
| CN(C(=O)Cc1ccc(Cl)c(Cl)c1)[C@H]1CC[C@@]2(CCCO2)C[C@@H]1N1CCCC1 | inactive: 26% |
| O=[N+]([O-])c1ccc2c(c1)nnn2O | inactive: -1.52% |
| CN(C)C(=O)c1cc([N+](=O)[O-])cc2c1-c1c(cc([N+](=O)[O-])cc1[N+](=O)[O-])C2=O | inactive: 22.3% |
